EPAC2 antagonist = EPAC2 (human) antagonism. Q8WZA2. EPAC2 GEF exchange of Rap1B-BODIPY-GDP, fluorescence. Potency, µM (doses to about 114 µM), inactives show at the top dose activity, negative = inhibition, actives largely listed as inhibitors. hit rate 0.18% among 360,000. AID 720708; further: on the % scale 0 is the no-effect control and ±100 the full control effect; nearly all actives have a fitted effect of over 45% in size
EPAC2 agonist = activates human EPAC2 exchange factor. Q8WZA2. EPAC2 activation, biochemical qHTS; response scale: 100% = 6.5 mM cAMP response. Potency, µM (top dose mostly 154 µM), for the others: at the highest dose activation, actives largely listed as activators. hit rate 0.079% among 360,000. AID 720711; further: nearly all actives have a fitted effect of over 50% in size
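Setup: EPAC2 100 nM, labeled Rap1B complex 250 nM, free GDP 50 uM. Compound titrations pinned in, brief spin, 5 min room temperature incubation. Kinetic fluorescence read over 30 min, normalized to 6.5 mM cAMP.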
Rango dissoc inh = prevents RanGTP from dissociating the Rango-importin beta complex. Biochemical FRET Rango-importin beta, RanGTP-induced dissociation. Potency, µM (highest dose often 46.1 µM), for the others: at the highest dose activity change, negative = inhibition. hit rate 0.071% among 340,000. AID 540253; calls by dose curve; further: % of control where 0% means no effect; nearly all actives have a fitted effect of over 45% in size
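Recombinant Rango FRET biosensor (EYFP–snurportin 1 IBB–cerulean CFP10) at 0.1 uM premixed with 0.25 uM importin beta in PBS, 1 mM DTT, 0.02% Tween-20, 0.1% BSA. Compound added 5 min; RanGTP-RCC1 (0.6 uM Ran, 2 mM GTP, 0.2 uM RCC1) then triggers release, read at 45 min.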
EPAC1 ag = activates human EPAC1 exchange factor; O95398; EPAC1 agonist qHTS, biochemical assay; response scale: 100% = response to 6.5 mM cAMP; Potency, µM (doses to about 154 µM), inactives show at the top dose activation, hits mostly activators; hit rate 0.073% among 360,000; AID 720707; further: nearly all actives have a fitted effect of over 60% in size
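Fluorescent GDP-exchange assay: 100 nM EPAC1 with 250 nM Rap1B preloaded with BODIPY-GDP and 50 uM GDP; compounds tested as concentration series, 5 min at room temperature, then read every 5 min for 30 min (ex 480/em 540 nm); normalized to 6.5 mM cAMP.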
EPAC1 antag = blocks human EPAC1 exchange factor | EPAC1 GEF assay, Rap1b-BODIPY-GDP exchange fluorescence | O95398 | Potency, µM (series often up to 115 µM), for the others: at the top dose activity change, negative = inhibition, most hits filed as inhibitors | hit rate 0.14% among 360,000 | AID 720709;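 further: plate controls were vehicle for no effect and positive control for full effect; nearly all actives have a fitted effect of over 50% in size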
Rango complex inh = prevents formation of the Rango-importin beta complex. Q14974. Rango CFP/YFP FRET sensor + importin beta, 45 min. Potency, µM (highest dose often 92.2 µM), for the others: top-dose inhibition of complex formation. hit rate 0.031% among 340,000. AID 540263; calls by dose curve;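 further: 0% = DMSO wells and 100% = buffer wells lacking importin beta; nearly all actives have a fitted effect of over 15% in size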
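Inhibition scored from the CFP 486 nm/YFP 530 nm FRET ratio 45 min after adding 0.125 microM importin beta to 50 nM Rango biosensor preincubated 5 min with compound (room temperature, PBS with DTT, Tween-20, BSA). No-importin wells as positive control.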
Numbers without * were called inactive; i = inactive; ? = inconclusive; . = not tested or not shown; [ ] = dose if it differs, or a comment. Most compounds without a hit are left out; they make up all but 0.43% or so of the library. Unless noted, the call rests on the fitted dose curve; in most records, active means well fitted curve in the direction sought with a large enough effect; inconclusive means small, poorly fitted or top-dose-only effect, or another doubt; inactive means no such curve, though single readings can be large; an effect the other way counts as inactive or inconclusive. Potency means the concentration at half of the fitted maximal effect.

1) Cc1ccc(CSC2=NCCN2S(=O)(=O)c2ccc(F)cc2)cc1
2) Cc1ccc(/C(C#N)=C\c2ccc(N3CCOCC3)o2)cc1
3) Cc1ccc2nc(/C(C#N)=C\c3ccc(N4CCOCC4)o3)[nH]c2c1
4) COC(=O)C[C@H]1C=C[C@@H](NC(=O)NC2CCCCC2)[C@@H](CO)O1
5) CCCNC(=O)C1(C)CCCN(C(=O)COc2ccc(C(C)(C)C)cc2)C1 (stereo not given)
6) CC(=O)Oc1ccc2c3c(c(=O)oc2c1)CCCC3
7) CCC(NC(=O)OC(C)(C)C)C(=O)Oc1ccc2c3c(c(=O)oc2c1)CCC3 (stereo not given)
8) CC(C)Oc1ccc2c3c(c(=O)oc2c1)CCC3

Screen / compound no. | 1 | 2 | 3 | 4 | 5 | 6 | 7 | 8
EPAC2 antagonist | 50.1µM* | -0.4% | 16.7% | 6.5% | -11.3% | 3.7% | -5.7%[57.1 µM] | 11.9%
EPAC2 agonist | 11.6% | ? | 39.8µM* | -3.2% | -11.4% | 1.5% | -10.2% | -1.5%
Rango dissoc inh | 11.9% | ? | ? | . | . | 20.6µM* | 11.6µM* | -7.2%
EPAC1 ag | 7.5% | 10.6% | ? | 3.8% | -3.5% | 8.0% | -3.4% | -0.1%
EPAC1 antag | ? | -3.2% | 41.4% | 1.4% | -14.5% | -6.6% | -4.1% | 6.2%
Rango complex inh | 0.6% | ? | ? | . | . | ? | ? | 2.5%

9) COc1ccc2cc3[n+](cc2c1O)CCc1cc2c(cc1-3)OCO2
10) COc1cc2c(cc1OC)-c1cc3ccc(OC)c(OC)c3c[n+]1CC2
11) COc1cc(NC(=O)c2cc3ccccc3o2)c(OC)cc1Br
12) CCOc1ccc(N2C(=O)/C(=C/c3ccccc3)N=C2SC)cc1
13) COc1ccc(/C=C2\N=C(SC)N(c3ccccc3OC)C2=O)cc1
14) O=C(NN1C(=O)/C(=C/c2ccc(O)c(O)c2)SC1=S)c1ccccc1
15) O=C1/C(=C/c2ccc(O)c(O)c2)SC(=S)N1Nc1ccccc1
16) COc1cc(/C=C2\SC(=S)N(NC(=O)c3ccc(O)cc3)C2=O)ccc1O

Screen / compound no. | 9 | 10 | 11 | 12 | 13 | 14 | 15 | 16
EPAC2 antagonist | 89.1µM* | -11.9% | 4.3% | 0.7% | 17.8µM* | -19.9% | -17.6% | ?
EPAC2 agonist | 18.8% | 2.8% | 10µM* | 4.0% | 15.2% | 3.2% | 8.7% | 9.1%
Rango dissoc inh | . | -12.8% | 0.3% | -12.8% | -5.6% | ? | 0.4% | ?
EPAC1 ag | -0.4% | -3.3% | 3.9% | 8.0% | -2.2% | 1.2% | -2.9% | 4.8%
EPAC1 antag | ? | 12.3% | -4.4% | -14.6% | 5.6% | ? | ? | ?
Rango complex inh | . | 0.0% | -4.5% | -2.4% | ? | 36.6µM* | 36.6µM* | ?

17) CCOc1cc(/C=C2\SC(=S)N(Nc3ccccc3)C2=O)ccc1O
18) O=C(O)c1ccc(/C=C2\SC(=S)N(Nc3ccccc3)C2=O)cc1
19) COc1cc(/C=C2\SC(=S)N(Nc3ccccc3)C2=O)ccc1O
20) Cc1ccc(OC2CCN(C(=O)[C@H]3O[C@@H](n4ccc(=O)[nH]c4=O)[C@H](O)[C@@H]3O)CC2)cc1
21) CCc1ccc(C2CC3C(CN2S(=O)(=O)c2ccc(C)cc2)C(=O)CC(c2ccc(CC)cc2)N3S(=O)(=O)c2ccc(C)cc2)cc1 (stereo not given)
22) O=[N+]([O-])c1ccccc1S(=O)(=O)Nc1ccc(S(=O)(=O)Nc2nccs2)cc1
23) Nc1ccc(S(=O)(=O)Nc2nccs2)cc1N=Nc1ccccc1[N+](=O)[O-]
24) CC(C)O/C(=N\S(=O)(=O)c1ccc(Cl)cc1)c1ccccc1

Screen / compound no. | 17 | 18 | 19 | 20 | 21 | 22 | 23 | 24
EPAC2 antagonist | -20.5% | -12.8% | -13.6% | 10.8% | 14.0% | -7.7% | 10µM* | ?
EPAC2 agonist | 4.1% | 4.0% | 11.6% | 10.4% | 14.5% | 12.3% | -1.2% | 4.4%
Rango dissoc inh | ? | -3.5% | 17.1% | . | . | 5.8% | -8.6% | 1.6%
EPAC1 ag | 15.9% | -2.2% | -16.1% | 2.3% | 8.8% | 11.9% | 12.0% | -1.4%
EPAC1 antag | ? | -23.1% | -20.4% | 4.5% | 4.1% | 1.4% | ? | 2.2%
Rango complex inh | 16.6% | 3.7% | 36.6µM* | . | . | -2.1% | -0.8% | -0.1%

25) CC(C)O/C(=N/S(=O)(=O)c1ccc(Cl)cc1)c1ccccc1
26) O=c1[nH]nc(CNc2ccc(O)cc2)c2ccccc12
27) N#Cc1c(-c2cccs2)nc(SCc2ccc(Cl)cc2)[nH]c1=O
28) O=C1c2c(-c3ccc(Br)cc3)noc2CCN1Cc1cn(C2CCCC2)nn1
29) COc1ccc(S(=O)(=O)N2CCC3(CC2)OCCN3S(=O)(=O)c2ccc(OC)cc2)cc1
30) COc1ccc(S(=O)(=O)N2CCOC23CCN(S(=O)(=O)c2cccs2)CC3)cc1
31) O=C1C=C(N(CCO)Cc2ccccc2)c2ccccc2C1=O
32) O=C1c2ccccc2C(=O)c2c1cccc2N(CCO)CCO

Screen / compound no. | 25 | 26 | 27 | 28 | 29 | 30 | 31 | 32
EPAC2 antagonist | 50.1µM* | 7.4% | 50.1µM* | -0.2% | -2.5% | 4.4% | ? | -9.6%
EPAC2 agonist | 14.2% | 0.1% | -8.8% | 8.2% | 12.5% | -1.4% | 23.5% | 1.8%
Rango dissoc inh | -4.2% | 3.7% | -0.8% | . | -1.0% | -2.0% | -9.8% | 8.4%
EPAC1 ag | 1.6% | 9.6% | -3.2% | 2.4% | -7.1% | 56.2µM* | 9.5% | 3.2%
EPAC1 antag | 4.5% | 35.5µM* | 89.1µM* | -9.8% | 1.6% | -4.1% | 44.7µM* | -20.7%
Rango complex inh | -0.6% | 0.7% | -2.2% | . | 0.1% | -0.2% | -0.6% | ?

The results go on.
Short keys: A = EPAC2 antagonist; B = EPAC2 agonist; C = Rango dissoc inh; D = EPAC1 ag; E = EPAC1 antag; F = Rango complex inh
(33) COC(=O)[C@@H]1ON2OCC(C)=C3CCCC[C@@]32[C@H]1C(=O)OC
  A: 3.0% | B: 6.3% | C: . | D: 12.6% | E: -5.3% | F: .
(34) COc1ccc(NC(=O)C2=NN(c3ccccc3)C(=O)CC2)cn1
  A: 1.6% | B: -0.8% | C: 0.1% | D: ? | E: i | F: 51.7µM*
(35) CC(C)NC(=O)C1=NN(c2ccccc2)C(=O)CC1
  A: -4.1% | B: -1.7% | C: ? | D: 1.5% | E: -5.7% | F: -0.6%
(36) CCN1C(=O)C(=CC=CN(C)c2ccccc2)SC1=S
  A: -2.7% | B: 89.1µM* | C: . | D: ? | E: 34.7% | F: .
(37) CSc1c(C#N)c(N)nc2sc(C(=O)c3ccc(Cl)c(Cl)c3)c(N)c12
  A: 11.0% | B: 12.4% | C: -8.0% | D: 100µM* | E: -1.3% | F: 5.5%
(38) COc1ccc(-c2c(C#N)c(N)nc3sc(C(=O)c4ccccc4)c(N)c23)cc1
  A: 8.1% | B: 8.3% | C: ? | D: -0.4% | E: -14.4% | F: ?
(39) CC(C)C[C@H]1COCCS(=O)(=O)N1Cc1cccc(C(F)(F)F)c1
  A: 14.1µM* | B: -9.2% | C: -17.1% | D: -32.1% | E: -22.9% | F: 4.8%
(40) COCCn1c(-c2ccc(-c3ccccc3Cl)o2)nc2c1c(=O)[nH]c(=O)n2CC(C)C
  A: 1.2% | B: -2.7% | C: 6.51µM* | D: 0.0% | E: -10.1% | F: ?
(41) CCCCn1c(=O)[nH]c(=O)c2c1nc(-c1ccc(-c3ccccc3Br)o1)n2CCOC
  A: 9.7% | B: 0.0%[15.6 µM] | C: 0.7% | D: 6.7% | E: -1.4% | F: -4.9%
(42) COC(=O)[C@@]12C[C@@H](CC(=O)N3CCN(C(=O)C4CC4)CC3)C(=O)N(Cc3cccc4ccccc34)C1=CCC(C)(C)C2
  A: -25.4% | B: -3.7% | C: . | D: -1.9% | E: -8.8% | F: .
(43) CCOc1ccc2nc(NC3=NC(c4ccc(OC)cc4)CC(=O)N3)nc(C)c2c1 (stereo not given)
  A: 31.6µM* | B: ? | C: -15.1% | D: ? | E: 50.1µM* | F: -0.2%
(44) COc1cc(Cl)c(C)cc1NC(=O)CSc1cc(Cl)ccc1Cl
  A: 15.2% | B: -5.4% | C: -6.3% | D: 7.4% | E: 25.1µM* | F: -1.1%

Five compounds out of the list, arranged by length of the SMILES, smallest number first:
Short keys: A = EPAC2 antagonist; B = EPAC2 agonist; C = Rango dissoc inh; D = EPAC1 ag; E = EPAC1 antag; F = Rango complex inh
(36) CCN1C(=O)C(=CC=CN(C)c2ccccc2)SC1=S
  A: -2.7% | B: 89.1µM* | C: . | D: ? | E: 34.7% | F: .
(34) COc1ccc(NC(=O)C2=NN(c3ccccc3)C(=O)CC2)cn1
  A: 1.6% | B: -0.8% | C: 0.1% | D: ? | E: i | F: 51.7µM*
(37) CSc1c(C#N)c(N)nc2sc(C(=O)c3ccc(Cl)c(Cl)c3)c(N)c12
  A: 11.0% | B: 12.4% | C: -8.0% | D: 100µM* | E: -1.3% | F: 5.5%
(43) CCOc1ccc2nc(NC3=NC(c4ccc(OC)cc4)CC(=O)N3)nc(C)c2c1 (stereo not given)
  A: 31.6µM* | B: ? | C: -15.1% | D: ? | E: 50.1µM* | F: -0.2%
(41) CCCCn1c(=O)[nH]c(=O)c2c1nc(-c1ccc(-c3ccccc3Br)o1)n2CCOC
  A: 9.7% | B: 0.0%[15.6 µM] | C: 0.7% | D: 6.7% | E: -1.4% | F: -4.9%
